# Measurements reported in US20230137562A1, “TAU AGGREGATION INHIBITORS” (priority 2017, published 2023).
# By UniProt entry, the sequences of proteins in these tests, tags left out. Chains listed by the source or under a name are the forms on record and can include a tag or linker.
# UniProt P10636, other isoform, or with tags, fused parts or gaps limits assumed: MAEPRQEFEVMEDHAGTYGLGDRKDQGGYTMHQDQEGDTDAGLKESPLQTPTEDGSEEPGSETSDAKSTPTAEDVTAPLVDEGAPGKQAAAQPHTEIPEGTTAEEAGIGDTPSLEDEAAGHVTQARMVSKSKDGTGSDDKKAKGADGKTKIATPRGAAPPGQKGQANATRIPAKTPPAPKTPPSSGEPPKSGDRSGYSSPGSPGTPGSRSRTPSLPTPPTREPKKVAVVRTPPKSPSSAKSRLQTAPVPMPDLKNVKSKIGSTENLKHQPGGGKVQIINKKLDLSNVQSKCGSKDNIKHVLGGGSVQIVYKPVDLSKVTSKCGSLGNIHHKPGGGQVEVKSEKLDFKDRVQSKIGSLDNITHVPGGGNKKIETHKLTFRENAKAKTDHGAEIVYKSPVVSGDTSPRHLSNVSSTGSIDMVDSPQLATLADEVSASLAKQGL
# T1: Ac-VQIINK-NH2 (N-terminal acetyl (Ac-); C-terminal amide (-NH2))
# T1 peptide: VQIINK
# What was measured:
# [1] = target: T1, Ac-VQIINK-NH2; experiment: cell-based or functional assay
# [2] = target: His-Tau40P301L Tau (UniProt P10636-8 1-441); experiment: cell-based or functional assay
binder,measurement,setting,value
LRIRLRL,"IC50 (µM), VQIINK Inhibition (ThT)",[1],3.22 µM
same,"IC50 (µM), Tau40 assay (ThT)",[2],0.69 µM
